Target: 5-HT1A serotonin receptor (Rattus norvegicus, UniProt P19327)

Protein sequences, listed by entry. Tags and fused reporters are not part of them.
UniProt P19327, whole entry: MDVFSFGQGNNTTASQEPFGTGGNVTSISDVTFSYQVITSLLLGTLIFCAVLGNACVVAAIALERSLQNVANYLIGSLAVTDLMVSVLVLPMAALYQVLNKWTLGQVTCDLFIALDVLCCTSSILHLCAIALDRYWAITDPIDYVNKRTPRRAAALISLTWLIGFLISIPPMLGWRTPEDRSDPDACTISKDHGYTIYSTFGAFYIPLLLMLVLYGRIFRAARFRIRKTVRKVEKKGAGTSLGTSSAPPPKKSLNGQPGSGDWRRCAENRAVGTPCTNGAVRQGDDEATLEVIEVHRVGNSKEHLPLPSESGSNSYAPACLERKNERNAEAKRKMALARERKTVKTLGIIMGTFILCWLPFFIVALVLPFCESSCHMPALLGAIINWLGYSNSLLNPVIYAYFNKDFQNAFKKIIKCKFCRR

## CC1(C)CC(=O)N(CCCCN2CCN(c3ncccn3)CC2)C(=O)C1 [Gepirone, 4,4-dimethyl-1-[4-[4-(2-pyrimidinyl)-1-piperazinyl]-butyl]-2,6-piperidinedione, reference compound]
  Ki: 852 nM

— patent publication EP0343961B1, “Aryl- and heteroaryl piperazinyl carboxamides having central nervous system activity” (priority 1988, dated 1989)
